## Measured affinities in a library of Ab-14 light chain variants

From the AlphaSeq antibody data of Li et al. 2023 (doi:10.1038/s41467-023-39022-2), copy in the FLAb collection.

Binding partner: SARS-CoV-2 spike HR2 peptide, sequence PDVDLGDISGINAS.

Parent scFv Ab-14: VH joined to VL by a (GGGGS)3 linker. Changes lie in the light chain CDRs alone.
VH: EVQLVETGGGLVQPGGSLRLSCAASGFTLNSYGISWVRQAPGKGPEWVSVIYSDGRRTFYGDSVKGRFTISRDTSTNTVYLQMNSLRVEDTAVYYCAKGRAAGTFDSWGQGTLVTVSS
VL: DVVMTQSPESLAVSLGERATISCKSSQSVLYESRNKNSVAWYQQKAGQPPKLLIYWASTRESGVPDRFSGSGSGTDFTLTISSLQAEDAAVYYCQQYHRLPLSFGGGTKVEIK

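Phage display of a naive human antibody library on the peptide gave the parent. Designed CDR sequences, proposed from the first random library and measured here. Group labels follow the data file (En: ensemble of fine-tuned language models; GP: Gaussian process model; HC: hill climbing; Gen: genetic algorithm; Gibbs: Gibbs sampling; a sequence that several methods proposed may carry one label only). The scFvs were displayed on barcoded MATa yeast, the peptide on MATalpha yeast. Binding brings cells together so that they mate, and sequencing counts the barcode pairs among the diploids. A regression on co-assayed BCL2-family reference pairs converts the normalised counts of each replicate to an apparent Kd. The assay was run in six technical replicates.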

Variants are written as CDR1, CDR2 and CDR3 of the light chain (limits as in the source). Parent: KSSQSVLYESRNKNSVA, WASTRES, QQYHRLPLS. This list holds designs with more than six substitutions. Kd is apparent (estimated from mating counts) and averaged on the log scale over replicates with a signal. Smaller is tighter. "no signal" means that the variant was in the library but no mating with the target was seen in any replicate; the authors take this as a sign of poor binding, and no number exists. The authors' rule: three or more of the six replicates give a measured affinity, fewer mean a poor binder. Of ten entries with the parent sequence, four were seen in most replicates (averages 2.2 nM to 240 nM), three in one and three in none, so single entries are noisy. Nonspecific signal, from three strains lacking the peptide, appeared in 4% of pairings of all light chain designs, centred on 430 nM (5% of these signals below 38 nM); values are not corrected for it. Values of this round are not directly comparable with the first-round values of the same sequences.

KLSQVTHSEHKMKNSIA | EMVTREK | QQYDRLPLS [En_HC]: 4.6 nM (6 of 6 replicates).
MLSDMVKMGSRNTNSVA | DNSTRGS | QQYDRLPLS [En_HC]: 18 nM (6 of 6 replicates).
ALSQSMDMTSRNKNSVA | DLDTREN | QQYHRLPLS [En_HC]: 1.0 nM (6 of 6 replicates).
KLLQAVVGETYQKNNVA | HNSTRED | QEYARLPLS [En_HC]: 12 nM (6 of 6 replicates).
KVSQSQCYESRNKNNVA | NASDRMS | QQYHRLPLS [GP_Gibbs]: 570 pM (6 of 6 replicates).
TIGQTLMSGVRNRSNVA | EVSQRLN | QQYDRLPLM [En_Gen]: 8.5 nM (6 of 6 replicates).
KLDLTNGEMDKKGQNIA | EASTAGT | QSYWRLPLS [En_Gibbs]: 77 nM (5 of 6 replicates).
MISQLMNMGQFAINSVA | QASIRNA | QQYDRLPLI [En_Gen]: 49 nM (4 of 6 replicates).
MVNGIMDHLSKQTNNVA | ETETREE | QQYDRLPLS [En_Gen]: 8.7 nM (6 of 6 replicates).
TISQMFLGESRNRNSVA | QASTREY | QSYDRLPLS [En_HC]: 8.0 nM (6 of 6 replicates).
KIGGVTNGISRNKNSVA | EQETRES | QQYNRLPLS [En_HC]: 3.3 nM (6 of 6 replicates).
FLAMALDQDGLIKNNIA | QDNLLEN | QQYERLPLG [En_Gibbs]: no signal (0 of 6 replicates).
IIDQIMYHGNKHVNSIA | QASQRLN | QQYHHLPLQ [En_Gen]: 330 nM (2 of 6 replicates).
KISQLVNFLGKNKNSVA | QMSTREI | QQYDRLPLS [En_HC]: 10 nM (6 of 6 replicates).
KVSEFMRGLMQRKDSIA | DNTTRGN | QQYDRLPLS [En_Gen]: 520 nM (2 of 6 replicates).
MISDLTMYGSRQKNSVA | DLSTRGS | QQYHRLPLS [En_HC]: 820 pM (6 of 6 replicates).
KYDFSVLEESRNSNSVA | NASTREE | QDYHRLPLS [GP_Gibbs]: 1.9 nM (6 of 6 replicates).
TLWDSIQGGDKAKKNVA | DEQVRMV | QQYYRLPLS [En_Gibbs]: 1.0 nM (6 of 6 replicates).
ALGTSTLEESRNKNSVA | EMSLRES | QSYNRLPLS [En_HC]: 22 nM (6 of 6 replicates).
TISYSAMMTGLNRNSVA | QAEERLE | QQYNRLPLS [En_HC]: 4.5 nM (6 of 6 replicates).
KARQSNLYESRNQNSVA | NASQRLE | QQYHRLPLS [GP_Gibbs]: 2.8 nM (6 of 6 replicates).
HLSQSVGGEMRNKNSVA | EAQTREQ | QQYHRLPLS [GP_Gibbs]: 1.3 nM (6 of 6 replicates).
MVYQAVMMGTATRNSIA | NAEMRPD | QQYHRLPLI [En_Gen]: 6.1 nM (6 of 6 replicates).
KLDQSWWGEWRNKNSVA | HASTREQ | QQYHRLPLS [GP_Gibbs]: 6.3 nM (6 of 6 replicates).
SIYDATGMESRNRNPIA | DVSTRPS | QQYDRLPLS [En_HC]: 1.5 nM (6 of 6 replicates).
TMAYQPETINGRVNNVA | NGSEAVE | QQYDRLPFV [En_Gibbs]: 5.9 nM (6 of 6 replicates).
KLSKMVMEGSRNKNSVA | SASQREE | QQYHRLPLS [GP_Gibbs]: 1.2 nM (6 of 6 replicates).
MVSQLMLWGLHAKNSIA | EAVTRLN | QQYDRLPLF [En_Gen]: 1.2 µM (1 of 6 replicates).
KLMQGDEYESRNKNSVA | NASKRLE | QQYHRLPLS [GP_Gibbs]: 1.0 nM (6 of 6 replicates).
HITYGMMVHGRHSKSIA | QAEERAK | QQYDRLPLA [En_Gen]: 8.6 nM (6 of 6 replicates).
TISQMTSLFSQKINNVA | EVSMREE | QQYDRLPLA [En_Gen]: 4.1 nM (6 of 6 replicates).
RFSQTEQMGIRDYNSVA | NGSTVAT | QHYSRLPIS [En_Gibbs]: 7.8 nM (6 of 6 replicates).
KLYEMSASTMSNIRNVA | DNSTREY | QQYNRLPLS [En_Gen]: no signal (0 of 6 replicates).

Top 4 of the variants detected in all replicates, tightest first:

For KVSQSQCYESRNKNNVA | NASDRMS | QQYHRLPLS [GP_Gibbs], the assay gave 570 pM (6 of 6 replicates).
For MISDLTMYGSRQKNSVA | DLSTRGS | QQYHRLPLS [En_HC], the assay gave 820 pM (6 of 6 replicates).
For TLWDSIQGGDKAKKNVA | DEQVRMV | QQYYRLPLS [En_Gibbs], the assay gave 1.0 nM (6 of 6 replicates).
For KLMQGDEYESRNKNSVA | NASKRLE | QQYHRLPLS [GP_Gibbs], the assay gave 1.0 nM (6 of 6 replicates).